Experimental data reported in ChEMBL document CHEMBL1129370, “Synthesis, ligand binding, and quantitative structure-activity relationship study of 3 beta-(4'-substituted phenyl)-2 beta-heterocyclic tropanes: evidence for an electrostatic interaction at the 2 beta-position” (J Med Chem, 1996).

Chains of the proteins cited; added tags and fusions are not shown.
UniProt P23977, whole entry: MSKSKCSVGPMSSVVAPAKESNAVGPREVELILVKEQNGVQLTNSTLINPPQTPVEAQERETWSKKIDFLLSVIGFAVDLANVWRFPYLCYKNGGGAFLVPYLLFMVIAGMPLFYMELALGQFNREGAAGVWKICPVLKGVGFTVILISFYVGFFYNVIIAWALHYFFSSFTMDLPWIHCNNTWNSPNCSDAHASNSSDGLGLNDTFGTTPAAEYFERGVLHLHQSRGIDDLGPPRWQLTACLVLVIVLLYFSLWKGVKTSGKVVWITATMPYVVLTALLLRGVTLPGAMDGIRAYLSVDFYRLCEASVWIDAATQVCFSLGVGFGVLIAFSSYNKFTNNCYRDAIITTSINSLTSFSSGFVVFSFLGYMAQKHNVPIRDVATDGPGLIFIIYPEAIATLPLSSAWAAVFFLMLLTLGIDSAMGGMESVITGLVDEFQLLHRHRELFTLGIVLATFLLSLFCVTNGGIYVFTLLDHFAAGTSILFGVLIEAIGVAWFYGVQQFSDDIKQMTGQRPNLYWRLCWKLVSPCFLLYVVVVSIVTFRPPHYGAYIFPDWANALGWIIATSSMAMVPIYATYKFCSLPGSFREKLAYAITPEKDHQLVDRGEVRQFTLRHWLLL

Biological target: Sodium-dependent dopamine transporter (Rattus norvegicus, UniProt P23977)
Test: Binding affinity against Dopamine transporter using [3H]WIN-35 428 in rat striatum
Assay type: tissue-based

`Cc1noc([C@H]2C(c3ccc(Cl)cc3)C[C@H]3CCC2N3C)n1` (stereo partly specified) showed an IC50 of 4.05 nM.
